Results reported in PMC12126322, “Characterisation of the thermophilic P450 CYP116B305 identified using metagenomics-derived sequence data from an Australian hot spring” (Applied Microbiology and Biotechnology, 2025).

Tests used:
CYP116B305 [1] = assay: Substrate binding by UV-visible difference spectroscopy (KD, heme spin-state shift); design: species or system Geminicoccaceae; settings: for Spin-state shift (%): low-spin to high-spin heme shift on substrate binding
CYP116B305 [2] = assay: NAD(P)H consumption assay (cofactor preference, oxidation rates); assay type: biochemical, Geminicoccaceae; settings: for NADH consumption rates / NADPH consumption rates: 33% FMN inclusion, min^−1; for NADH consumption rates (100% FMN rates) / NADPH consumption rates (100% FMN rates): corresponding to full FMN incorporation, approximate maximum
Procedure: The consumption rates were calculated using nonlinear regression (GraphPad Prism), fitting to either the Michaelis–Menten or a quadratic velocity equation to determine the apparent KM and kcat values.

CYP116B305 [3] = assay: In vitro catalytic turnovers and coupling efficiency (GC-MS); assay type: biochemical, Geminicoccaceae; settings: for Coupling (NADH): product formed to NADH consumed; for Coupling (NADPH): product formed to NADPH consumed
Procedure: The reaction mixtures contained CYP116B305 (1 µM) in KPi buffer (50 mM, pH 7.4), catalase (1 µM), substrate (600 µM), and NAD(P)H (1.2 mM). Reactions were conducted at both room temperature (25 °C) and elevated temperature (45 °C) under constant stirring for 1 h. A control reaction, omitting the P450 enzyme, was also performed. Post-incubation, reaction mixtures were acidified to pH 0–2 with HCl (except for 4-methoxyacetophenone assays), followed by extraction with ethyl acetate (3 × 1 mL). The combined organic phases were dried over magnesium sulphate and concentrated to 100 µL under a stream of nitrogen gas. Concentrated samples were derivatised with N,O-bis(trimethylsilyl)trifluoroacetamide (BSTFA-TMS) before being analysed by gas chromatography–mass spectrometry (GC–MS; Zebron ZB-5MS column 30 m × 0.25 mm × 0.25 µm). The method was 50 °C for 5 min followed by increments of 16 °C min^−1 until 250 °C was reached, then held for 5 min.
For coupling efficiency analysis, the NAD(P)H concentration was reduced to 200 µM, and an internal standard (100 µM) was added to the reactions prior to acidification and extraction. […] In the case of 4-methoxyacetophenone, the reactions were stirred for 2 h, and product formation (4-hydroxyacetophenone) was then quantified using a standard curve generated from 4-hydroxyacetophenone (0.05–1 mM) and an internal standard (fluorene; 100 µM).

CYP116B234 = settings: ref Kundral et al. [2025]; cited from earlier work
CYP116B46 = settings: ref Akter et al. [2024]; cited from earlier work

## O=C(O)Cc1ccccc1O [2-HPA, 2-hydroxyphenylacetic acid]
CYP116B305 [1]; difference spectroscopy, CYP116B305 2–4 µM, substrate 0–100 µM
  Kd: 400 ± 100 nM
CYP116B305 [1]
  Spin-state shift (%): 84 ± 3%
CYP116B305 [1]; listed as 2-Hydroxyphenylacetic acid (2-HPA)
  Spin-state shift (%): 84 ± 3%
CYP116B305 [2]; 25 °C
  NADH consumption rates: 26 ± 2 µM (µM^−1 P450) min^−1
  NADPH consumption rates: 13 ± 1 µM (µM^−1 P450) min^−1
  NADH consumption rates (100% FMN rates): ~79 µM (µM^−1 P450) min^−1
  NADPH consumption rates (100% FMN rates): ~39 µM (µM^−1 P450) min^−1
CYP116B305 [2]; 45 °C compared to 25 °C
  fold increase of NADH oxidation rate: 3.2 fold
  fold increase of NADPH oxidation rate: 6.5 fold
CYP116B305 [2]; 45 °C
  NADH consumption rates: 83 ± 10 µM (µM^−1 P450) min^−1
  NADPH consumption rates: 85 ± 3 µM (µM^−1 P450) min^−1
  NADH consumption rates (100% FMN rates): ~251 µM (µM^−1 P450) min^−1
  NADPH consumption rates (100% FMN rates): ~257 µM (µM^−1 P450) min^−1
CYP116B305 [3]; 25 °C
  Coupling (NADH): 31 ± 3%
  Coupling (NADPH): 60 ± 18%
CYP116B305 [3]; 45 °C
  Coupling (NADH): 58 ± 3%
  Coupling (NADPH): 82 ± 4%
CYP116B305 [3]; NADH, either temperature (25 °C, 45 °C)
  substrate conversion with NADH: complete conversion of 2-HPA was not achieved
CYP116B305 [3]; NADPH in stoichiometric ratio to substrate, both 25 °C and 45 °C
  substrate consumption with NADPH: complete consumption
CYP116B234
  heme spin-state shift: 66%
CYP116B46
  heme spin-state shift: 25%
